Data taken from paper PMC3711766 (The Journal of neuroscience : the official journal of the …, 2013).

By UniProt entry, the sequences of proteins in these tests, tags left out.
UniProt P42866, whole entry: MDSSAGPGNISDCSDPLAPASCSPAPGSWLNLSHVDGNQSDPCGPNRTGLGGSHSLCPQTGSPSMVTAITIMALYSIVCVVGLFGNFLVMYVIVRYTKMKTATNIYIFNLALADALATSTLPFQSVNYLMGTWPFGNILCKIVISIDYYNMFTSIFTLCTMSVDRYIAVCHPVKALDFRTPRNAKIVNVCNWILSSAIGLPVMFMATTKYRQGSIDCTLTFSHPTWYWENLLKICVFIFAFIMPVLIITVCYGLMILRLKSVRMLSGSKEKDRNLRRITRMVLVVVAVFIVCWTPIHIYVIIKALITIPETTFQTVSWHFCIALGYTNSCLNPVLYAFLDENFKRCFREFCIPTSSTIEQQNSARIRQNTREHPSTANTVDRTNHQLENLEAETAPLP

What was measured:
[1] = molecular target: T1, FLAG-MOR (Mus musculus, UniProt P42866); assay: Whole cell [3H] DAMGO binding in live FLAG-MOR HEK 293 cells; conditions: 12 nM; for specifically bound [3H] DAMGO: 10 min
[2] = molecular target: T1, FLAG-MOR; assay type: binding

Row | Substance | specifically bound [3H] DAMGO ([1]; cells pretreated with ME 30 µM 2 hrs + Con A) | specifically bound [3H] DAMGO ([1]; naïve cells) | increase in [3H] DAMGO binding after modulation by ME ([1]; ME 30 µM 2 hrs vs naïve) | fraction derm A594 remaining after 3 min [2]
1 | [^3H] DAMGO | 397.7± 32.6 fmol [^3H] DAMGO bound/mg protein | 91.3±2.3 fmol [^3H] DAMGO bound/mg protein | 335% | –
2 | endomorphin 2 [enodmorphin 2] | – | – | – | 0.45±0.02
